## Yeast mating assay 1: variants of the scFv Ab-14

Antigen: PDVDLGDISGINAS, a 14-residue peptide of the SARS-CoV-2 spike HR2 region.

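The library (AAYL49) carries one to three amino acid substitutions per variant, with no insertions or deletions. Affinity was read by AlphaSeq, a pooled yeast mating assay with surface-displayed partners. After mating in shaken culture at 30 °C for 16 h, diploids were selected and their barcode pairs sequenced. Read counts were normalised to the haploid input and turned into Kd by a linear fit to BCL2-family pairs of known affinity, for each replicate. Each pool was mated in three replicate cultures.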

Ab-14 is the parent antibody, in scFv form: VH, then three GGGGS repeats, then VL. The light chain is unchanged in all variants.
VH: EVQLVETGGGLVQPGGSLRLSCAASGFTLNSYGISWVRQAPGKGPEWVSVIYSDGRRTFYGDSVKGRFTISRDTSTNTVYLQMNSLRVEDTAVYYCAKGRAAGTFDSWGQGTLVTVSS
VL: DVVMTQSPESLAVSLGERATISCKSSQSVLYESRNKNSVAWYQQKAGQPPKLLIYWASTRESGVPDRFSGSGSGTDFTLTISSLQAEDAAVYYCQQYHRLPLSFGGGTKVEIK

The parent's heavy chain CDRs are GFTLNSYGIS, VIYSDGRRTFYGDSVK, GRAAGTFDS; each variant's own CDRs replace them letter for letter. Numbers give log10(Kd / nM), so 0 is 1 nM and 3 is 1 µM. Smaller is tighter. Replicates are averaged; those with no signal do not enter the mean. An entry "nd" has no value in the source: the pair was not observed among the diploids in any replicate. This suggests poor binding but is not conclusive. For reference, the parent read 0.65 as the reference entry and 4.11 (one replicate of three) as a member of this library. As a blank, each scFv also met three strains without target: over library AAYL49, 15% of these pairings were detected, typically at 4.06 and seldom below 2.83.

nd (0 of 3 replicates) for DFRLNSYGIS | VIYSDGRRTFYGDCVK | GRAAGTFDS.
4.05 (2 of 3 replicates) for GFTLNSYGIS | VIYSDGRRWFYGPSWK | GRAAGTFDS.
nd (0 of 3 replicates) for GFTLWSYGTS | TIYSDGRRTFYGDSVK | GRAAGTFDS.
3.81 (2 of 3 replicates) for GFTLNSYGIS | VIYQDGRRTFYGDSVQ | GRPAGTFDS.
1.50 (3 of 3 replicates) for GFTLNSYGIS | VIYSDGRRTFYGDSVK | GRAATTFDK.
nd (0 of 3 replicates) for GFTLNSYGIS | PIYSDGRRTFYGDSIC | GRAAGTFDS.
4.26 (2 of 3 replicates) for WFTLHSYGIS | VPYSDGRRTFYGDSVK | GRAAGTFDS.
nd (0 of 3 replicates) for CFTLNSYGIS | VIYSDLRRTFYGDSVK | GRHAGTFDS.
nd (0 of 3 replicates) for GFTLNSYGYT | VIYSDGRRTFYGDMVK | GRAAGTFDS.
5.35 (1 of 3 replicates) for GQTLNSYGID | VIYSDGRRTFYGDSVD | GRAAGTFDS.
nd (0 of 3 replicates) for GFILNSYGIS | VIYSDGRNTFHGDSVK | GRAAGTFDS.
1.89 (3 of 3 replicates) for GFTLNSYGIS | VIYSDGTRTFYNDYVK | GRAAGTFDS.
nd (0 of 3 replicates) for GFTLVSYGIS | VIYSDGRRTCYGDSVK | ERAAGTFDS.
4.76 (2 of 3 replicates) for GFTLNSYGSS | AIYSDGRRTAYGDSVK | GRAAGTFDS.
5.32 (1 of 3 replicates) for GFMLNSYGIS | VIYSDGRPTFYGDSIK | GRAAGTFDS.
2.11 (3 of 3 replicates) for GFTLNSYGIS | VIYSDGRRSFYGDSVK | GRAAGTRDS.
3.61 (1 of 3 replicates) for GFTLEIYGIS | VISSDGRRTFYGDSVK | GRAAGTFDS.
nd (0 of 3 replicates) for EFTLNSYGIS | VIYSIGRRTFYGDRVK | GRAAGTFDS.
4.88 (1 of 3 replicates) for GFTLNSYGIS | AIYSDGRREFYGDSVK | GRAASTFDS.
nd (0 of 3 replicates) for GFFLNSYGIS | VIYSDRRRTLYGDSVK | GRAAGTFDS.
4.43 (2 of 3 replicates) for GQTLNSKYIS | VIYSDGRRTFYGDSVK | GRAAGTFDS.
3.06 (3 of 3 replicates) for GFTLNSYGIS | VQYADGRRTFYGDSVK | GRAAGTFDS.
3.05 (3 of 3 replicates) for GFADNSYGIS | VIYSDGRRTFYDDSVK | GRAAGTFDS.
nd (0 of 3 replicates) for GHTLNSYGIS | VIYSDGRRTFYGDSVK | GDAAGTFRS.
nd (0 of 3 replicates) for GFTLNSYGIS | TFYSDGRRTFYGDSVK | GRAAGTFDS.
nd (0 of 3 replicates) for GFTNNSNGIS | VIYSDGRRTFYGDSVH | GRAAGTFDS.
nd (0 of 3 replicates) for GFTLPSYGIS | VIYSDGRLTFYGDSVI | GRAAGTFDS.
2.38 (3 of 3 replicates) for GFALNSYGIS | VIYPDGRRTFYGASVK | GRAAGTFDS.
nd (0 of 3 replicates) for SFTLNSYGIS | VIYSDGRRTFYFGSVK | GRAAGTFDS.
nd (0 of 3 replicates) for GTTLNAYGIS | VIYSWGRRTFYGDSVK | GRAAGTFDS.
nd (0 of 3 replicates) for GFTLNSYGSS | VIYSHGRRTFYGDFVK | GRAAGTFDS.
4.17 (1 of 3 replicates) for GFTLNSYGIS | VIYDDGRRTFYGDRVK | GTAAGTFDS.

Excerpt, the final 3 entries:

CDR-H1	CDR-H2	CDR-H3	mean, log10 nM	seen in
GTTLNAYGIS	VIYSWGRRTFYGDSVK	GRAAGTFDS	nd	0/3
GFTLNSYGSS	VIYSHGRRTFYGDFVK	GRAAGTFDS	nd	0/3
GFTLNSYGIS	VIYDDGRRTFYGDRVK	GTAAGTFDS	4.17	1/3

The measurements come from Engelhart et al. 2022 (doi:10.1038/s41597-022-01779-4) through the FLAb antibody collection.